## Apparent affinities of Ab-95 variants for a coronavirus HR2 peptide

Data: MIT Lincoln Laboratory AlphaSeq set, Engelhart et al. 2022, doi:10.1038/s41597-022-01779-4, as distributed in FLAb.

All variants were tested on one target, the spike HR2 peptide PDVDLGDISGINAS (SARS-CoV-2).

Each scFv is VH, the linker GGGGSGGGGSGGGGS, VL, as in the parent Ab-95, and differs from it in the CDRs of the light chain only.
VH: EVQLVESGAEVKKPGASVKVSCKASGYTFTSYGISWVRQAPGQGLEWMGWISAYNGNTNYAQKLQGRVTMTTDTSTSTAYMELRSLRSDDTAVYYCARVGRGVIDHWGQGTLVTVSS
VL: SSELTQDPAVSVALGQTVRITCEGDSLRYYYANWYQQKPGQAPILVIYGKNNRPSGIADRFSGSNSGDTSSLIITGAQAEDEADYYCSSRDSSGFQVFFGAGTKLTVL

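The parent was found by panning a naive human phage display library on the peptide. The library (AAYL52) carries one to three amino acid substitutions per variant, with no insertions or deletions. The assay is AlphaSeq: two haploid yeast populations carry antibody and antigen on their surface. The frequency of each diploid, read from paired DNA barcodes, reflects how well the two displayed proteins bind. Each replicate has its own calibration line, from reference interactions of the BCL2 family. The assay was run in three technical replicates.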

Positions count from residue 1 of the parent VL; D25M puts M in place of D. The read-out is the apparent dissociation constant on a log10 scale (nM): the lower, the stronger. Where no diploid with the target was found in that replicate, the entry reads "ND": below detection, most likely a poor binder, though not proof of it. Empty control strains, which show no peptide, gave a signal in 28% of pairings with library AAYL52; the median was 3.91 and 95% of these signals were weaker than 2.90. No background was subtracted. The control count says in how many pairings with the empty strains this scFv gave a signal, with their mean in brackets.

{"changes": "D25M/G49W/R53F", "replicates, log10 nM": "3.63 3.16 3.81", "control signals": "2 of 9 (3.96)"}
{"changes": "L27Y/A32E", "replicates, log10 nM": "ND 2.98 ND", "control signals": "2 of 9 (2.85)"}
{"changes": "D25V/S55F/S89P", "replicates, log10 nM": "ND 4.48 3.16", "control signals": "1 of 9 (4.55)"}
{"changes": "P54C/S89P", "replicates, log10 nM": "3.80 2.92 2.93", "control signals": "2 of 9 (4.42)"}
{"changes": "S26P/Y29K/F98H", "replicates, log10 nM": "2.30 3.35 4.06", "control signals": "1 of 9 (4.75)"}
{"changes": "E23Q", "replicates, log10 nM": "ND ND ND", "control signals": "0 of 9"}
{"changes": "P54V/S89V/S92V", "replicates, log10 nM": "3.45 2.29 2.68", "control signals": "2 of 9 (3.71)"}
{"changes": "R53S/S55D/S89H", "replicates, log10 nM": "ND 3.43 3.53", "control signals": "2 of 9 (4.67)"}
{"changes": "E23I/L27E/R28T", "replicates, log10 nM": "4.70 3.16 ND", "control signals": "2 of 9 (4.21)"}
{"changes": "D91N/F98L", "replicates, log10 nM": "3.11 ND ND", "control signals": "3 of 9 (3.62)"}
{"changes": "G24Y/S92F/S93N", "replicates, log10 nM": "5.42 4.98 ND", "control signals": "0 of 9"}
{"changes": "K50P/S93K", "replicates, log10 nM": "3.05 2.69 2.23", "control signals": "0 of 9"}
{"changes": "Y30T/P54M/S93P", "replicates, log10 nM": "1.85 2.04 1.31", "control signals": "3 of 9 (4.32)"}
{"changes": "G49H/N51E/S89M", "replicates, log10 nM": "ND ND ND", "control signals": "0 of 9"}
{"changes": "P54A/R90I/Q96A", "replicates, log10 nM": "3.08 3.05 2.84", "control signals": "6 of 9 (3.33)"}
{"changes": "G24K/A32V/N33Q", "replicates, log10 nM": "2.77 ND 3.32", "control signals": "4 of 9 (3.83)"}
{"changes": "G24T/R53L", "replicates, log10 nM": "3.55 4.15 3.28", "control signals": "5 of 9 (4.19)"}
{"changes": "G94A/F98W", "replicates, log10 nM": "3.38 2.63 2.16", "control signals": "4 of 9 (4.11)"}

For reference, 3 entries of the list once more:

{"changes": "G24T/R53L", "replicates, log10 nM": "3.55 4.15 3.28", "control signals": "5 of 9 (4.19)"}
{"changes": "G94A/F98W", "replicates, log10 nM": "3.38 2.63 2.16", "control signals": "4 of 9 (4.11)"}
{"changes": "G24K/A32V/N33Q", "replicates, log10 nM": "2.77 ND 3.32", "control signals": "4 of 9 (3.83)"}